# AlphaSeq binding of Ab-91 heavy chain variants to a spike HR2 peptide

From the AlphaSeq antibody data of Engelhart et al. 2022 (doi:10.1038/s41597-022-01779-4), copy in the FLAb collection.

Target peptide (SARS-CoV-2 spike, HR2 region): PDVDLGDISGINAS

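The starting antibody came from a phage panning campaign against this peptide. In library AAYL51, one, two or three CDR residues were substituted; doubles and triples were drawn at random. The scFvs were displayed on barcoded MATa yeast, the peptide on MATalpha yeast. Pairs that bind mate more often; barcode pairs of the diploids are counted by sequencing. A regression on co-assayed BCL2-family reference pairs converts the normalised counts of each replicate to an apparent Kd. Mating was done three times.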

Ab-91 is the parent antibody, in scFv form: VL, then a (GGGGS)3 linker, then VH. The light chain is unchanged in all variants.
VL: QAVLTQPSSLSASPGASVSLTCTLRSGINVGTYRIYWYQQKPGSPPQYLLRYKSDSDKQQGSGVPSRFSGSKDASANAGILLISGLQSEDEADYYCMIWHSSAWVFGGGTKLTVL
VH: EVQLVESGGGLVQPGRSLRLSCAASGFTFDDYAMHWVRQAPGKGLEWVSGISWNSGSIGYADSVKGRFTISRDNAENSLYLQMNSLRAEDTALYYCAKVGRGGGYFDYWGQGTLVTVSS

Each variant is given by its three heavy chain CDRs, as the data file delimits them; those of the parent are GFTFDDYAMH, GISWNSGSIGYADSVK, VGRGGGYFDY. Numbers give log10(Kd / nM), so 0 is 1 nM and 3 is 1 µM. Smaller is tighter. A pair that was not seen in that replicate is written "nd"; this usually means weak binding, but a binder can also be missed. Nonspecific signal, from three strains lacking the peptide, appeared in 21% of pairings of library AAYL51, centred on 4.54 (5% of these signals below 3.26); values are not corrected for it. The control count says in how many pairings with the empty strains this scFv gave a signal, with their mean in brackets.

CDR-H1,CDR-H2,CDR-H3,"log10 Kd, replicates",signal with controls
GFTFDDYAMH,GIFWNSGSIGYADSVK,VGRGQGCFDY,5.61 / nd / nd,1 of 9 (3.62)
GFTFDDYAVH,GISWNSGSIYYADSVK,VGRPGGYFDY,5.25 / nd / nd,1 of 9 (5.10)
GFTFDDYAMH,GIHWRSGSIGYADSVK,VGRGTGYFDY,nd / nd / nd,0 of 9
LFTFDDYAMH,GASWNSGSSGYADSVK,VGRGGGYFDY,5.13 / 5.07 / nd,5 of 9 (4.98)
HDTFSDYAMH,GISWNSGSIGYADSVK,VGRGGGYFDY,3.84 / 4.54 / 4.83,3 of 9 (4.52)
GFTFDDYAMH,GIFWNSGSIGYADSVK,VGRGGNYFDY,nd / nd / nd,0 of 9
GFTFDDYAMH,GISWNSGYIGYADWVK,VGRGGGYFDY,nd / nd / nd,0 of 9
GFTFDDYADH,GISWNSGSIVYADSVK,VHRGGGYFDY,nd / nd / nd,1 of 9 (4.64)
GYTFDDYAMH,GISWNSWSVGYADSVK,VGRGGGYFDY,1.97 / 2.03 / 1.56,4 of 9 (4.37)
GFTFDDSAMH,GTSWNSGSIGYADSVK,VGRTGGYFDY,nd / 3.30 / 4.44,0 of 9
GFTFDDYAMH,GISWNSGSINYADSVK,VGRGGKYFDY,nd / nd / nd,0 of 9
GFTIDDYAMA,GISWNSCSIGYADSVK,VGRGGGYFDY,3.88 / nd / nd,3 of 9 (4.53)
GFTFDDYEMH,WISWNSGSIGYADSVF,VGRGGGYFDY,4.34 / 5.94 / 4.67,3 of 9 (4.52)
GFTFDDYAKH,GISQNSGSIGYADSVK,VGRAGGYFDY,4.71 / nd / nd,2 of 9 (5.34)
GATFDDYAMH,GISWNSHSIGYADSVK,VGRGGGYFDC,3.60 / 3.07 / 3.33,3 of 9 (4.24)
GPAFDDYAMH,GISWNSGSIGYADSVK,VGRGGTYFDY,4.24 / nd / 4.40,5 of 9 (4.46)
GFTFKDYAMH,GISWNSGSIGYADSVT,VGRNGGYFDY,2.92 / 2.90 / nd,1 of 9 (4.90)
GFTFDEYEMH,GISTNSGSIGYADSVK,VGRGGGYFDY,nd / nd / nd,0 of 9
GFTFDDYAMH,GISWNSGSIGYADSVK,VGRGGGWFDQ,1.47 / 1.43 / 0.95,3 of 9 (4.37)
GFTFDDYANH,GMSWNSGSIGYADSVK,WGRGGGYFDY,nd / nd / nd,0 of 9
GFTFDDYAMH,GISWNSGSIALQDSVK,VGRGGGYFDY,nd / nd / nd,0 of 9
GFTFDDYAMH,GISWNSGSIGYADSVK,VQRIGFYFDY,nd / nd / nd,0 of 9
GFTFDDYAIH,GIYWNSGSEGYADSVK,VGRGGGYFDY,3.76 / nd / nd,6 of 9 (4.30)
GWTFDDYAMH,GISWNSGSIGYADSVK,VGAGGGYFHY,4.56 / nd / nd,1 of 9 (4.38)
HFTFDDYAMH,QISQNSGSIGYADSVK,VGRGGGYFDY,6.28 / 3.52 / 4.51,6 of 9 (4.75)
GFTFMDYAMH,GISWNSGSIDYAISVK,VGRGGGYFDY,4.36 / 4.67 / 5.95,5 of 9 (5.22)
GFTTDDYAMH,GISWNSGSIGYADSVK,KGRGGGYFDK,1.69 / 1.29 / 0.99,0 of 9
TFTFDDYAMH,GISWNSNSIGYADSVK,VGRGGGYFDY,nd / nd / 3.35,0 of 9
GFTFHDYAMH,GISWNSGSIGYAISVK,VGRGFGYFDY,1.65 / 1.72 / 1.57,0 of 9
GFTTDDYAMH,GISWNSGQIGYADSVK,VGRGGSYFDY,nd / nd / nd,0 of 9
GFTNTDYAMH,GISWNSGSIGYADSVK,VGRGGGYFDD,nd / nd / nd,0 of 9

4 of these entries, quoted again:

CDR-H1	CDR-H2	CDR-H3	log10 Kd, replicates	signal with controls
GFTFDDYADH	GISWNSGSIVYADSVK	VHRGGGYFDY	nd / nd / nd	1 of 9 (4.64)
GFTFDEYEMH	GISTNSGSIGYADSVK	VGRGGGYFDY	nd / nd / nd	0 of 9
GFTFKDYAMH	GISWNSGSIGYADSVT	VGRNGGYFDY	2.92 / 2.90 / nd	1 of 9 (4.90)
GFTFDDYAMH	GIFWNSGSIGYADSVK	VGRGGNYFDY	nd / nd / nd	0 of 9